One molecule from ChEMBL document CHEMBL1143561, “Virtual docking approaches to protein kinase B inhibition” (J Med Chem, 2005) can be followed below.

Chains of the proteins cited; added tags and fusions are not shown. Lines headed by an entry give the natural chain unless they say otherwise; changes in a name come on top.
UniProt P31749: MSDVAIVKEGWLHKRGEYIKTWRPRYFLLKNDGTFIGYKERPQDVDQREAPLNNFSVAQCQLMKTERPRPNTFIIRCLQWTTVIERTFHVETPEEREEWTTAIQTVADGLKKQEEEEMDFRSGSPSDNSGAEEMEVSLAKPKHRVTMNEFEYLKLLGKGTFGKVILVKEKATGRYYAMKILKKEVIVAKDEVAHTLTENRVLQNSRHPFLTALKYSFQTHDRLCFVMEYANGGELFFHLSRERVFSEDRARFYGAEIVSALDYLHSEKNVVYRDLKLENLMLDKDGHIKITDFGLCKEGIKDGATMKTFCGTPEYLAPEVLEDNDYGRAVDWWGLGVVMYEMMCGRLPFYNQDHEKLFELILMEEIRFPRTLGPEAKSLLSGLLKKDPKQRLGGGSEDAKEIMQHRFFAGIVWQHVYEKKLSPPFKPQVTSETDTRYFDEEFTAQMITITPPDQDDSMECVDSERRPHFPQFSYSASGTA

This assay deals with RAC-alpha serine/threonine-protein kinase (Homo sapiens, UniProt P31749). Put plainly: Inhibition of protein kinase B alpha (Akt1) in fluorescent enzymatic assay.

What is called IC50 is the midpoint of a concentration-inhibition curve. For the molecule `CC1=C(C#N)c2nc(N)c(C#N)c(C)c2/C1=C/c1ccc(-c2ccc(C(=O)O)cc2)o1`, the IC50 amounted to 126 µM.
